Test system: LSK cells
Test: Co-administration of cytokines and FLT3L, LSK cell mobilization (Example 4)
Format: in vivo
Conditions: IFN-β co-administered with GM-CSF or FLT3L
From the text: The co-administration of cytokines is common in other types of cell mobilization methods. […] LSK cells are hematopoietic stem cells that were Lin-negative, Scal -positive, and c-kit-negative.

B1: IFN-β: a routinely utilized cytokine, co-administered with GM-CSF or FLT3L (protein, UniProt P01574 22-187, looked up)
Interferon beta: MSYNLLGFLQRSSNFQCQKLLWQLNGRLEYCLKDRMNFDIPEEIKQLQQFQKEDAALTIYEMLQNIFAIFRQDSSSTGWNETIVENLLANVYHQINHLKTVLEEKLEKEDFTRGKLMSSLHLKRYYGRILHYLKAKEYSHCAWTIVRVEILRNFYFINRLTGYLRN
  percentage of LSK cells: dramatically reduced
